In BindingDB's records for patent US8987315 (Innocrin Pharmaceuticals, 2015) one finds IC50 data, which are given here for two compounds.

By UniProt entry, the sequences of proteins in these tests, tags left out.
UniProt P08684, whole entry: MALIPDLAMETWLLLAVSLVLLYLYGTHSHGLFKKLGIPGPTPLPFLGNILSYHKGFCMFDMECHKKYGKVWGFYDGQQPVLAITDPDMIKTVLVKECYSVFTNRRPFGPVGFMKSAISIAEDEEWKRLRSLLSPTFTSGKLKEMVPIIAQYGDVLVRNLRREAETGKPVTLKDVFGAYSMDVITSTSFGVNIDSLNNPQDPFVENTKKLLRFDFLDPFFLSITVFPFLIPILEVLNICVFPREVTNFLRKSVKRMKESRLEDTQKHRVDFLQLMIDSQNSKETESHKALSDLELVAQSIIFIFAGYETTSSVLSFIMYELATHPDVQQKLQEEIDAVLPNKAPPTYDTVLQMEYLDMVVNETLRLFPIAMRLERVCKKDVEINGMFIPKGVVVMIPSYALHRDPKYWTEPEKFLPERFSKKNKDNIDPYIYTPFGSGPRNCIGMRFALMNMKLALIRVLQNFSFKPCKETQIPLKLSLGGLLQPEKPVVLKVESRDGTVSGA

The data set concerns the target Cytochrome P450 3A4 (Homo sapiens, UniProt P08684).

SMILES strings stand for the structures. pIC50: −log10 of the molar value.

As for `CC(C)C(c1ccc2cc(OC(F)F)ccc2c1)n1ncnn1` (configuration not stated) [US8987315, 4], the pIC50 is less than 3.70. The same measure for `CC(C)C(c1ccc2cc(OCC(F)(F)F)ccc2c1)n1ncnn1` (configuration not stated) [US8987315, 2]: less than 4.22.
